The chains behind the UniProt entries cited, without tags or fusion partners.
UniProt P33535, whole entry: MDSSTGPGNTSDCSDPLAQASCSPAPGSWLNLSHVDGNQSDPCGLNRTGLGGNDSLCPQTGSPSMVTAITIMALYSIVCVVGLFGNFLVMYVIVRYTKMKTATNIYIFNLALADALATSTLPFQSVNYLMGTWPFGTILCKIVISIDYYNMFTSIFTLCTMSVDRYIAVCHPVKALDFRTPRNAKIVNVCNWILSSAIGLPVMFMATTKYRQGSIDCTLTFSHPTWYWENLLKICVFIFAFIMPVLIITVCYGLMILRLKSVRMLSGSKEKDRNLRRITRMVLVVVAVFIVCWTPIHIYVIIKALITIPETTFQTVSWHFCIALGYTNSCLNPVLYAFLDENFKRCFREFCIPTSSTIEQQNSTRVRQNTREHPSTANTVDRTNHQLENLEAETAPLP

In publication PMC6932940, “Modulation of μ‐opioid receptor activation by acidic pH is dependent on ligand structure and an ionizable amino acid residue” (British Journal of Pharmacology, 2019):

Target: μ‐opioid receptor wild type (MOR‐WT) (Rattus norvegicus, UniProt P33535)
Assay: biochemical
Set-up: expressed in transfected cells

Compound `C[C@@H](NC(=O)[C@@H](N)Cc1ccc(O)cc1)C(=O)NCC(=O)N(C)[C@@H](Cc1ccccc1)C(=O)NCCO` [DAMGO, [D‐Ala2,N‐Me‐Phe4,Gly5‐ol]‐enkephalin] has an Emax (pH 6, read-out: E max (maximum intrinsic activity), [35S]-GTPγS binding) of 116.2 ± 1.1% and an Emax (pH 6.5, read-out: E max (maximum intrinsic activity), [35S]-GTPγS binding) of 116.7 ± 0.9%.

Like-named read-outs stand apart in the source and are kept apart here.
